Biological target: T1, Histone deacetylase 8 (Homo sapiens, UniProt Q9BY41)
T1 sequence (Q9BY41 whole entry): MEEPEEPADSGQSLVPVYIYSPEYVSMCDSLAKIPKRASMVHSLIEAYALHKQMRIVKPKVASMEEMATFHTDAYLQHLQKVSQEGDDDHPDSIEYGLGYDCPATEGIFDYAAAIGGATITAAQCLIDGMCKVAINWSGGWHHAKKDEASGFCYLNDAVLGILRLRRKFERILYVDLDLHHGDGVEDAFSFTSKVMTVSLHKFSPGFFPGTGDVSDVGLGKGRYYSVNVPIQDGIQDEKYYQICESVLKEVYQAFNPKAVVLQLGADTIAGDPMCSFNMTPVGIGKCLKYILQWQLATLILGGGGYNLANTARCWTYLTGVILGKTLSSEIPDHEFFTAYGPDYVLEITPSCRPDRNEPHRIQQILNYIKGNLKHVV
Assay: Inhibition of recombinant C-terminal His-tagged full length human HDAC8 expressed in baculovirus infected insect Sf9 cells using fluorogenic HDAC class 2a substrate after 30 mins by fluorescence assay

O=C(CCCCCCC(=O)Nc1ccccc1)NO [VORINOSTAT]
IC50: 8.8 µM
